Like-named read-outs stand apart in the source and are kept apart here.
Legend:
E. granulosus PSCs [1] = test system: E. granulosus PSCs
E. granulosus PSCs [2] = experiment: microbe, parasite or virus in culture; conditions: Echinococcus granulosus, 72 h
[3] = primary screen, 50 μM, PSCs, 3-day incubation, PI staining (death rate of PSCs)
[4] = second-stage dose-response, 0.5 μM, PSCs
[5] = second-stage dose-response, 2 μM, PSCs
[6] = second-stage dose-response, 10 μM, PSCs
[7] = second-stage dose-response, 50 μM, PSCs

Structure (SMILES)	Anti-echinicoccus activity, Initiate hits 50uM (E. granulosus PSCs [1]; [3])	Anti-echinicoccus activity, Dose confirmaiton 2uM (E. granulosus PSCs [1]; [5])	Anti-echinicoccus activity, Dose confirmaiton 10uM (E. granulosus PSCs [1]; [6])	Anti-echinicoccus activity, Dose confirmaiton 50uM (E. granulosus PSCs [1]; [7])	Anti-echinicoccus activity, Dose confirmaiton 0.5uM (E. granulosus PSCs [1])	Anti-echinicoccus activity, Dose confirmaiton 2uM (E. granulosus PSCs [1])	Anti-echinicoccus activity, Dose confirmaiton 10uM (E. granulosus PSCs [1])	Anti-echinicoccus activity, Dose confirmaiton 50uM (E. granulosus PSCs [1])	Anti-echinicoccus activity, Initiate hits 50uM (E. granulosus PSCs [1])	also measured
CCC[C@H](NC(=O)/C(C#N)=C/c1cccc(Br)n1)c1ccccc1 [Degrasyn (WP1130), Degrasyn]	98	0	100	100	–	–	–	–	–	survival rate of PSCs (E. granulosus PSCs [1]; 50 μM, 3 days, 96-well): 0%; mortality of echinococcal PSCs (E. granulosus PSCs [1]; 50 μM, primary HCS format, 3 days): complete mortality; Anti-echinicoccus activity, Dose confirmaiton 0.5uM (E. granulosus PSCs [1]; [4]): 0
CCn1c2ccccc2c2cc(Nc3ccnc(NCCCN4CCOCC4)n3)ccc21 [EHop-016]	100	0	0	100	–	–	–	–	–	Anti-echinicoccus activity, Dose confirmaiton 0.5uM (E. granulosus PSCs [1]; [4]): 0
CC(=O)[C@]1(O)Cc2c(O)c3c(c(O)c2[C@@H](O[C@H]2C[C@H](N)[C@H](O)[C@H](C)O2)C1)C(=O)c1ccccc1C3=O.Cl [Idarubicin HCl, (7S,9S)-9-acetyl-7-((2R,4S,5S,6S)-4-amino-5-hydroxy-6-methyl-tetrahydro-2H-pyran-2-yloxy)-6,9,11-trihydroxy-7,8,9,10-tetrahydrotetracene-5,12-dione hydrochloride]	100	100	100	100	–	–	–	–	–	Anti-echinicoccus activity, Dose confirmaiton 0.5uM (E. granulosus PSCs [1]; [4]): 100
CC(=O)[C@]1(O)Cc2c(O)c3c(c(O)c2[C@@H](O[C@H]2C[C@H](N)[C@H](O)[C@H](C)O2)C1)C(=O)c1ccccc1C3=O [Idarubicin]	–	0	0	–	–	–	–	–	–	killing at 50 µM (E. granulosus PSCs [2]; read-out: Anti-echinicoccus activity, Dose confirmaiton 50uM, second-stage dose-response, 50 μM, PSCs): 100%; killing at 50 µM (E. granulosus PSCs [2]; read-out: Anti-echinicoccus activity, Initiate hits 50uM, primary screen, 50 μM, PSCs, 3-day incubation, PI staining (death rate of PSCs)): 100%
O=C(Nc1ncc(SCCN2CCCC2)s1)[C@]1(c2ccc(S(=O)(=O)C3CC3)cc2)C[C@H]1C1CCCCC1 [LY2608204]	–	–	–	–	0	0	0	100	100	–
O=C(O)C(O)C(O)C(=O)O.Oc1ccc2c(c1)CC[C@H](c1ccccc1)[C@@H]2c1ccc(OCCN2CCCC2)cc1 [Lasofoxifene tartrate]	94	0	100	100	–	–	–	–	–	–
COc1cccc2c(NCc3ccccc3)nc(-n3c(N)nc4ccccc43)nc12 [ML240]	–	–	–	–	0	0	100	100	100	–
CC(C)[C@H]1c2ccc(F)cc2CC[C@@]1(CCN(C)CCCc1nc2ccccc2[nH]1)OC(=O)C1CC1 [NNC 55-0396]	–	–	–	–	0	0	0	100	100	–
CC(C)(Cc1ccc2ccccc2c1)NC[C@@H](O)COc1cccc(Cl)c1C#N [NPS-2143]	–	–	–	–	–	–	–	–	–	MIC90 (minimum inhibitory concentration causing a 90% death of PSCs) (E. granulosus PSCs [1]; third round, eight concentrations 0.5-64 μM, day 3 post-treatment): 30 µM
Cc1ccc(S(=O)(=O)c2ccc([N+](=O)[O-])o2)cc1 [NSC697923]	–	–	–	–	0	0	100	100	100	–
NS(=O)(=O)C#Cc1ccccc1 [Pifithrin-μ]	–	–	–	–	0	0	100	100	100	–
COc1cc(/C=C/C(=O)N2CCC=CC2=O)cc(OC)c1OC [Piperlongumine]	–	–	–	–	0	0	0	100	100	–
CC(C)(C)C(=O)Nc1ccc2c(c1)C(=O)C(=O)c1ccccc1-2 [SF1670]	100	0	100	100	–	–	–	–	–	–
O=[N+]([O-])c1ccc2c(c1)S(=O)(=O)C=C2 [Stattic]	100	0	100	100	–	–	–	–	–	–
CC(C)(C)c1cc(C=C(C#N)C#N)cc(C(C)(C)C)c1O [Tyrphostin 9]	85	–	100	100	–	–	–	–	–	–
C=CC(=O)Nc1cccc(Oc2nc(Nc3ccc(N4CCN(C)CC4)cc3)ncc2Cl)c1 [WZ3146]	100	0	0	100	–	–	–	–	–	–

Reference: paper PMC11370232, “Repurposing of a library for high-content screening of inhibitors against Echinococcus granulosus” (Parasites & Vectors, 2024)
